Literature values as cited in publication PMC6816013 (Journal of Medicinal Chemistry, 2019).

Test system: P. falciparum strain 3D7A
Conditions: result in words; previous study ref 17; cited from earlier work

SMILES: Cc1cn2c(-c3ccnc(NCC4CC4)n3)c(-c3ccc(F)c(NS(C)(=O)=O)c3)nc2cc1CN(C)C [Compound 2]
- rate of killing in PRR study: slow parasite killing kinetics
